Assay results reported in paper PMC4120670 (Kidney International, 2014).

Experiments:
MATE1 [1] = molecular target: T1, MATE1 (Homo sapiens, UniProt Q96FL8); test: Inhibition of MATE1 transport of tetraethylammonium; format: cell-based
T1 sequence (Q96FL8 1-570): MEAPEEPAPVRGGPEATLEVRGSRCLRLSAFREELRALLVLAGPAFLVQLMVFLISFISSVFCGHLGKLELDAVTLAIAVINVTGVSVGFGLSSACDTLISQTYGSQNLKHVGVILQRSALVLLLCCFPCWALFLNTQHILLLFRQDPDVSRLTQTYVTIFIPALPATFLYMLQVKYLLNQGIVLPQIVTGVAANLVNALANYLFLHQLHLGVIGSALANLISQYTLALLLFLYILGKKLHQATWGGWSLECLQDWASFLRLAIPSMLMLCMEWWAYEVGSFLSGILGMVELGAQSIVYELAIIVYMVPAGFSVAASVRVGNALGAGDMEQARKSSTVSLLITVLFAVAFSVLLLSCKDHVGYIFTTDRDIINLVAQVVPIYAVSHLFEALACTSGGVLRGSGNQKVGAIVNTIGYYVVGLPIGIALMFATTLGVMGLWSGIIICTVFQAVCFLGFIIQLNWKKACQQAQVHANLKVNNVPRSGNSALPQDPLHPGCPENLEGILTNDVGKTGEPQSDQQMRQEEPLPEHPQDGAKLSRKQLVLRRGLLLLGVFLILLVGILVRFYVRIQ

MATE1 [2] = molecular target: T1, MATE1; test: Inhibition of MATE1-mediated creatinine transport; format: cell-based

`CN/C(=N/CCSCc1nc[nH]c1C)NC#N` [Cimetidine, cimetidine] gave an IC50 (MATE1 [1]) of 1.46 ± 0.11 µM and an IC50 (MATE1 [2]) of 0.2 µM.
